Reference: PubChem BioAssay AID624296 (National Center for Advancing Translational Sciences (NCATS), 2012)
The entries are a selection whose mix differs from that of the whole data set. Records with an inconclusive call do not appear. Active and inactive are the calls of the source. The call rests on the fitted dose curve; in most records, active means well fitted activation curve with a large enough effect; inconclusive means small, poorly fitted or top-dose-only effect; inactive means no such curve, though single readings can be large or run the other way.

Assay: A quantitative high throughput screen for small molecules that induce DNA re-replication in MCF 10a normal breast cells. Further: % of control where 0% means no effect; nearly all actives have a fitted effect of over 50% in size.
Conditions: MCF 10A DNA re-replication, Hoechst nuclear intensity, 48 h; at 46.1 µM (top of the series)

SMILES | activity, positive = re-replication
O=C(OCCCN1CCCC1)C(O)(c1ccccc1)C1CCCCC1 (stereo unspecified) | inactive: -9.15%
